Laboratory results published in PubChem BioAssay (EPA / NIEHS).
The entries are a selection whose mix differs from that of the whole data set. Calls of active or inactive are those of the source. How the source made its calls: active means hit-call score of the fitted dose curve at least 0.9, where 1 is the maximum; inactive means score below 0.9.

Test: ATG_E_Box_CIS: Attagene CIS-FACTORIAL HepG2 Assay for human Enhancer Box (E-box) (AID 2282936)
Conditions: HepG2 E-box cis-reporter transcription, actives raise or lower the signal
Method: ATG_CIS is a cell-based, multiplexed-readout assay that uses HepG2, a human liver cell line, with measurements taken at 24 hours after chemical dosing in a 24-well plate.ATG_E_Box_CIS is one of 52 assay component(s) measured or calculated from the ATG_CIS assay. It is designed to make measurements of mRNA induction, a form of inducible reporter, as detected with fluorescence intensity signals by Reverse transcription polymerase chain reaction (RT-PCR) and Capillary electrophoresis technology.Data from the assay component ATG_E_Box_CIS was analyzed into 1 assay endpoint. This assay endpoint, ATG_E_Box_CIS, was analyzed with bidirectional fitting relative to DMSO as the negative control and baseline of activity. Using a type of inducible reporter, measures of mRNA for gain or loss-of-signal activity can be used to understand the reporter gene at the transcription factor-level as they relate to the gene USF1. Furthermore, this assay endpoint can be referred to as a primary readout, because this assay has produced multiple assay endpoints where this one serves a reporter gene function. To generalize the intended target to other relatable targets, this assay endpoint is annotated to the dna binding intended target family, where the subfamily is basic helix-loop-helix protein.
Human liver HepG2 cells are transiently transfected with multiple reporter transcription units (MRTUs) in 6-well plates using FuGene 6 reagent (Roche; 3 ml FuGene/1 mg DNA). The MRTU constructs are regulated by a cis-regulating element (promoter). […] A major difference between the CIS and TRANS system is that in CIS activities of endogenous TFs are measured, whereas the TRANS assay evaluates changes in activities of exogenous, chimeric NR-Gal4 proteins. […] At the end of 24 hour incubation, total RNA was isolated using TriZol reagent (Invitrogen). The isolated RNA is then reverse-transcribed using oligo(dT) primer and Mo-MLV reverse transcriptase (Invitrogen) with DNAse I (Ambion) treatment for 30 min. The one-tenth of the produced cDNA was amplified by PCR using Taq DNA polymerase (Invitrogen) and two reporter sequence-specific primers. The PCR products were fluorescently labeled by primer extension with 6-arboxyfluorescein (6-FAM) 5'-labeled reporter sequence-specific primer (2 min at 95 C, 20 s at 68 C and 10 min at 72 C) and these products were digested with 5U of HpaI (New England Biolabs) for 2h at 37 C. The fragments were purified using Qiaquick PCR columns (Qiagen), analyzed on an ABI 3130xL genetic analyzer (Applied Biosystems) with peak positions identified by using a set of X-rhodamine (ROX)-labeled MapMarker1000 molecular weight standards (BioVentures). The raw capillary electrophoresis data was processed using Attagraph software (Attagene).
With `COP(C)(=O)OC` the outcome was “inactive”. With `CN(C)CCCl` the outcome was “inactive”. With `O=[N+]([O-])OCC(CO[N+](=O)[O-])(CO[N+](=O)[O-])CO[N+](=O)[O-]` the outcome was “inactive”. With `O=[N+]([O-])c1cccc([N+](=O)[O-])c1` the outcome was “inactive”. In the case of `COc1ccc([N+](=O)[O-])cc1[N+](=O)[O-]`, the outcome is reported as “inactive”. In the case of `Cc1c([N+](=O)[O-])cccc1[N+](=O)[O-]`, the outcome is reported as “inactive”. For `Cc1cccc([N+](=O)[O-])c1[N+](=O)[O-]`, the AC50 was active: 105 µM. With `Cc1ccc([N+](=O)[O-])c([N+](=O)[O-])c1` the AC50 was active: 52.2 µM. For `CC(C)OP(C)(=O)OC(C)C`, the outcome was “inactive”. For `Cc1ccc([N+](=O)[O-])cc1[N+](=O)[O-]`, the outcome was “inactive”. With `N#CBr` the outcome was “inactive”. With `CC(C)N(CCO)C(C)C` the outcome was “inactive”.
